Biological target: T1, EGFRvIII (Homo sapiens, UniProt P00533, DELINS30-297G)
T1 construct: expressed in transfected cells; host or cells: U87MG human glioblastoma cells (U87H population), retroviral transduction with pLERNL
Test: Immunoblotting of EGFRvIII phosphorylation after kinase inhibitor treatment of U87H cells
Type: cell-based
Conditions: 1 h AG1478 dose escalation after 24-h serum starvation, Western blot

COc1cc2ncnc(Nc3cccc(Cl)c3)c2cc1OC [AG1478]
EGFRvIII phosphorylation levels: dose-dependent decrease

From US20090042906A1, “METHODS FOR TREATING CANCERS ASSOCIATED WITH CONSTITUTIVE EGFR SIGNALING” (Massachusetts Institute of Technology, priority 2007, published 2009)
